Consider one compound from ChEMBL document CHEMBL3120110, “Design, synthesis, biological evaluation, and comparative docking study of 1,2,4-triazolones as CB1 receptor selective antagonists” (Eur J Med Chem, 2014).

By UniProt entry, the sequences of proteins in these tests, tags left out.
UniProt P20272, whole entry: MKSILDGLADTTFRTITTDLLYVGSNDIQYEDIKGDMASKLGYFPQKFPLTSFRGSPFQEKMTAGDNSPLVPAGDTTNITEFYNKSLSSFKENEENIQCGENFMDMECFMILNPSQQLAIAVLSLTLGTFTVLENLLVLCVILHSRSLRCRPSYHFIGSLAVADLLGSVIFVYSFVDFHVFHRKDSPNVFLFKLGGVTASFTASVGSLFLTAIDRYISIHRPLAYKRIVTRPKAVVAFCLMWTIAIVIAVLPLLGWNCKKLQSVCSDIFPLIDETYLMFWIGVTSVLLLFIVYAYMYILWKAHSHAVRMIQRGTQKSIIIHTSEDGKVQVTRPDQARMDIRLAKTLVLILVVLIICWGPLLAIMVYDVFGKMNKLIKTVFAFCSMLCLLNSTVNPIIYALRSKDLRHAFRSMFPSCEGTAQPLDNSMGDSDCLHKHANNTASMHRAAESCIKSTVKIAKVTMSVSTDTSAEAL

For test [1], the target named is Cannabinoid receptor 1 (Rattus norvegicus, UniProt P20272). Nature of the test: Antagonist activity at rat brain CB1 receptor.
The target of test [2] is T1, Cannabinoid receptor 2 (Rattus norvegicus, UniProt Q9QZN9).
T1 sequence (Q9QZN9 whole entry): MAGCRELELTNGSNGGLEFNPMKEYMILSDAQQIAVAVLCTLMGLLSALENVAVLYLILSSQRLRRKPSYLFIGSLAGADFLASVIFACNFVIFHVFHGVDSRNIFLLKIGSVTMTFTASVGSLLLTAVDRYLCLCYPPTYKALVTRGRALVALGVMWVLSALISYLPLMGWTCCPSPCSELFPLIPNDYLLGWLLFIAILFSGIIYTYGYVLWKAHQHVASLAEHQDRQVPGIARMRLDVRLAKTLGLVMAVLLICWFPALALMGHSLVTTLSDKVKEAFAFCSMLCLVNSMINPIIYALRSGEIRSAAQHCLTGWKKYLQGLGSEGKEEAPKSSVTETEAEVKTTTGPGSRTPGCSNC
Nature of the test: Antagonist activity at rat spleen CB2 receptor.

pKi: −log10 of the molar value.

Take `Cc1ccc(Cn2nc(C(=O)N[C@@H]3C(C)(C)[C@@H]4CC[C@@]3(C)C4)cc2-c2ccc(Cl)c(C)c2)cc1` [SR-144528]: the results for the negative-log Ki (pKi) in test [1] and in test [2] were 6.36 and 9.22, respectively.

For orientation: pKi means the negative decadic logarithm of the Ki, by convention in mol/L. Read a high pKi as a low Ki.
